# Results taken from patent US20070191336A1 (priority 2003, published 2007).
# The chains behind the UniProt entries cited, without tags or fusion partners.
# UniProt Q16539, whole entry: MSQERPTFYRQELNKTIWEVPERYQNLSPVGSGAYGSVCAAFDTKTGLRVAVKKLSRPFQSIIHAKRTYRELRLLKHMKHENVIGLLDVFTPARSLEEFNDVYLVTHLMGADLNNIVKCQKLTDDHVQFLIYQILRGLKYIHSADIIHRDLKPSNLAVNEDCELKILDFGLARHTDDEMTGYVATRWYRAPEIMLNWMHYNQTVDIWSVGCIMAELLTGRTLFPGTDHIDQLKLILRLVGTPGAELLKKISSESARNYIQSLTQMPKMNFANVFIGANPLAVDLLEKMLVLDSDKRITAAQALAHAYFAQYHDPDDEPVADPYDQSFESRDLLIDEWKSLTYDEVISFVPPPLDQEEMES
# Target: T1, phospho p-38 alpha kinase (Homo sapiens, UniProt Q16539)
# T1 construct: purchased Panvera
# Assay: P-38 alpha kinase assay (spectrophotometric, pyruvate kinase/lactate dehydrogenase coupled)
# Assay type: biochemical
# Details: Table 2; rates from […] to 2 h time frame
# Protocol: In this assay, the oxidation of NADH was continuously measured spectrophometrically. […] The reaction was initiated by adding ATP. The absorption at 340 nm was monitored continuously for up to 4 hours at 30° C. on Polarstar Optima plate reader (BMG). The kinase activity (reaction rate) was calculated from the slope at the time frame from 1.5 h to 2 h.
# For inhibition determinations, test compounds were incubated with the reaction mixture for ˜5 min before adding ATP to start the reaction. […] IC50 values were calculated from a series of % inhibition values determined at a range of concentrations of each inhibitor using Prism to process the data and fit inhibition curves. Generally, the rates obtained at the time frame of 1.5 h to 2 h were used for these calculations.
row,IC50 [nM],Structure (SMILES)
1,71,"CC(C)(C)c1cc(NC(=O)Nc2cccc3ccccc23)n(-c2cccc(OS(=O)(=O)NC(=O)N3CCCC3)c2)n1 [Example 49, (pyrrolidine-1-carbonyl)sulfamic acid 3-[3-tert-butyl-5-(3-naphthalen-1-yl-ureido)-pyrazol-1-yl]phenyl ester]"
2,416,"COc1ccc(-n2nc(C(C)(C)C)cc2NC(=O)Nc2ccc(Br)cc2)cc1 [Example 52, 1-{3-tert-butyl-1-(4-methoxyphenyl)-1H-pyrazol-5-yl}-3-(4-bromophenyl)urea]"
3,264,CC(C)(C)c1cc(NC(=O)Nc2ccc(Br)cc2)n(-c2ccc(CO)cc2)n1 [Example 60]
4,740,"CC(C)(C)c1cc(NC(=O)Nc2ccc(Br)cc2)n(-c2ccc(O)cc2)n1 [Example 55, 1-{3-tert-butyl-1-(4-hydroxyphenyl)-1H-pyrazol-5-yl}-3-(4-bromophenyl)urea]"
5,33,COc1ccc(-n2nc(C(C)(C)C)cc2NC(=O)Nc2ccc(OC)c3ccccc23)cc1 [Example 51]
6,109,"COc1ccc(-n2nc(C(C)(C)C)cc2NC(=O)Nc2ccc(Cl)cc2)cc1 [Example 53, 1-{3-tert-butyl-1-(4-methoxyphenyl)-1H-pyrazol-5-yl}-3-(4-chlorophenyl)urea]"

# Same assay, conditions: Table 3; rates from […] to 2 h time frame
row,IC50 [nM],Structure (SMILES)
1,2100,"CCOC(=O)CCc1ccc(-n2nc(C(C)(C)C)cc2NC(=O)Nc2ccc(Cl)cc2)cc1 [Example 294, ethyl 3-(4-(3-tert-butyl-5-(3-(4-chlorophenyl)ureido)-1H-pyrazol-1-yl)phenyl)propanoate]"
2,630,"CC(C)(C)c1cc(NC(=O)Nc2ccc(Cl)cc2)n(-c2cccc(CCN3CCOCC3)c2)n1 [Example 301, 1-{3-tert-butyl-1-[3-(2-morpholinoethyl)phenyl]-1H-pyrazol-5-yl}-3-(4-chlorophenyl)urea]"
3,1950,"CC(C)(C)c1cc(NC(=O)Nc2ccc(Cl)cc2)n(-c2cccc(C(=O)O)c2)n1 [Example 284, 3-(3-t-butyl-5-(3-(4-chlorophenyl)ureido)-1H-pyrazol-1-yl)benzoic acid]"
4,102,"CC(C)(C)c1cc(NC(=O)Nc2cccc3ccccc23)n(-c2cccc(C(=O)O)c2)n1 [Example 285, 3-(3-t-butyl-5-(3-(naphthalen-1-yl)ureido)-1H-pyrazol-1-yl)benzoic acid]"
5,5100,"CC(C)(C)c1cc(NC(=O)Nc2c(Cl)cccc2Cl)n(-c2cccc(CCC(=O)O)c2)n1 [Example 291, 3-(3-(3-t-butyl-5-(3-(2,6-dichlorophenyl)ureido)-1H-pyrazol-1-yl)phenyl)propanoic acid]"
6,79,"CC(C)(C)c1cc(NC(=O)Nc2cccc3ccccc23)n(-c2cccc(Cn3c(=O)sn(-c4ccccc4)c3=O)c2)n1 [Example 286, 1-(3-t-butyl-1-(3-((3,5-dioxo-2-phenyl-1,2,4-thiadiazolidin-4-yl)methyl)phenyl)-1H-pyrazol-5-yl)-3-(naphthalen-1-yl)urea]"
7,2300,"CC(C)(C)c1cc(NC(=O)Nc2ccccc2)n(-c2cccc(Oc3ccccc3)c2)n1 [Example 299, 1-[3-tert-, butyl-1-(3-phenoxyphenyl)-1H-pyrazol-5-yl]-3-phenylurea]"
8,1200,"CCOC(=O)CCc1cccc(-n2nc(C(C)(C)C)cc2NC(=O)Nc2ccc(Cl)cc2)c1 [Example 295, ethyl 3-(3-(3-tert-butyl-5-(3-(4-chlorophenyl)ureido)-1H-pyrazol-1-yl)phenyl)propanoate]"
9,28,"CC(C)(C)c1cc(NC(=O)Nc2cccc3ccccc23)n(-c2cccc(C(C)(C)O)c2)n1 [Example 196, 1-{5-t-butyl-2-[3-(1-hydroxy-1-methyl-ethyl)-phenyl]-2H-pyrazol-3-yl)-3-naphthalen-1-yl-urea]"
